The chains behind the UniProt entries cited, without tags or fusion partners. Residues count along the entry.
UniProt P23458, 875-1153: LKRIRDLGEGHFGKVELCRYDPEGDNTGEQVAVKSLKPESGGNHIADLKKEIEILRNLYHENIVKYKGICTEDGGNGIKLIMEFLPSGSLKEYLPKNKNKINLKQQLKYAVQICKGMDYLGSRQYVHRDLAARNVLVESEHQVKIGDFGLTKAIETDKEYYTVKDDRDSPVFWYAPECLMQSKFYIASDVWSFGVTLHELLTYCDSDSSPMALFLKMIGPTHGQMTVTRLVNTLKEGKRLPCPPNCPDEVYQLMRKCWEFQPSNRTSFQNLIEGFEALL
UniProt O60674, 849-1124: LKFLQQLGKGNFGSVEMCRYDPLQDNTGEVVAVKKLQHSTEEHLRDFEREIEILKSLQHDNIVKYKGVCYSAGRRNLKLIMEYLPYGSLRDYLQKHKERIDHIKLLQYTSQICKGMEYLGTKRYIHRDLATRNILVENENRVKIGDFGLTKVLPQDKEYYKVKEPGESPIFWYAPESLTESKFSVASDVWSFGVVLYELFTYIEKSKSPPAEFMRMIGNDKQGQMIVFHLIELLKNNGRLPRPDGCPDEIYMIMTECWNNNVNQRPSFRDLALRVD
UniProt P29597, 897-1176: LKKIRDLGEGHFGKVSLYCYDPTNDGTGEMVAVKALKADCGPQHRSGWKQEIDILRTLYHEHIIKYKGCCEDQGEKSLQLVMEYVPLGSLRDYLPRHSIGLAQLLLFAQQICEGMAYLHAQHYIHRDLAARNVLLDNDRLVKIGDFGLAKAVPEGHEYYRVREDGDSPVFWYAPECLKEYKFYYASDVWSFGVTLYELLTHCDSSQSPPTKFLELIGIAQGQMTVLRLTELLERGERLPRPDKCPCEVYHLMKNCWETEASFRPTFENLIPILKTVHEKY

In US10144738B2, “Pyrazolo[1,5-A]PYRAZIN-4-YL derivatives” (Pfizer Inc., priority 2016, dated 2018):

Assays:
Type in all cases: biochemical
Conditions in all cases: recombinant human kinase domain, Caliper mobility shift
JAK1 = JAK1 (Homo sapiens (Human), UniProt P23458); experiment: JAK Caliper enzyme assay at 1 mM ATP (JAK1)
JAK2 = JAK2 (Homo sapiens (Human), UniProt O60674); experiment: JAK Caliper enzyme assay at 1 mM ATP (JAK2)
TYK2 = TYK2 (Homo sapiens (Human), UniProt P29597); experiment: JAK Caliper enzyme assay at 1 mM ATP (TYK2)

Row | SMILES | IC50 (TYK2) [nM] | other results
1 | N#CC[C@]1(n2cc(-c3nc(-c4cc(CO)on4)cn4nccc34)cn2)C[C@@H](C#N)C1 [Example 1, (1s,3s)-3-(Cyanomethyl)-3-(4-(6-(5-(hydroxymethyl)isoxazol-3-yl)pyrazolo[1,5-a]pyrazin-4-yl)-1H-pyrazol-1-yl)cyclobutane-1-carbonitrile] |  | IC50 (JAK1): 291 nM
2 | Cn1cc(-c2cn3nccc3c(-c3cnn([C@]4(CC#N)C[C@H](O)C4)c3)n2)cn1 [Example 13, 2-((1s,3r)-3-Hydroxy-1-(4-(6-(1-methyl-1H-pyrazol-4-yl)pyrazolo[1,5-a]pyrazin-4-yl)-1H-pyrazol-1-yl)cyclobutyl)acetonitrile] |  | IC50 (JAK2): 487 nM
3 | CO[C@H]1C[C@](CC#N)(n2cc(-c3nc(-c4cnn(C)c4)cn4nccc34)cn2)C1 [Example 15, 2-((1r,3s)-3-Methoxy-1-(4-(6-(1-methyl-1H-pyrazol-4-yl)pyrazolo[1,5-a]pyrazin-4-yl)-1H-pyrazol-1-yl)cyclobutyl)acetonitrile] | 22 | 
4 | CO[C@H]1C[C@@](CC#N)(n2cc(-c3nc(-c4cnn(C)c4)cn4nccc34)cn2)C1 [Example 16, 2-((1s,3r)-3-Methoxy-1-(4-(6-(1-methyl-1H-pyrazol-4-yl)pyrazolo[1,5-a]pyrazin-4-yl)-1H-pyrazol-1-yl)cyclobutyl)acetonitrile] | 16 | 
